For the test, the target named is human TAAR1 (Homo sapiens (Human), UniProt Q96RJ0). Put plainly: cAMP functional assay in HEK293 cells expressing human TAAR1. The class given is cell-based. The following applies: read-out: hTAAR1 EC50. The procedure:
For the construction of expression plasmids the coding sequences of human TAAR 1 were amplified from genomic DNA essentially as described by Lindemann et al.[14]. The Expand High Fidelity PCR System (Roche Diagnostics) was used with 1.5 mM Mg^2+ and purified PCR products were cloned into pCR2.1-TOPO cloning vector (Invitrogen) following the instructions of the manufacturer. PCR products were subcloned into the pIRESneo2 vector (BD Clontech, Palo Alto, Calif.), and expression vectors were sequence verified before introduction in cell lines.
HEK293 cells (ATCC # CRL-1573) were cultured essentially as described by Lindemann et al. (2005). For the generation of stably transfected cell lines HEK293 cells were transfected with the pIRESneo2 expression plasmids containing the TAAR coding sequences (described above) with Lipofectamine 2000 (Invitrogen) according to the instructions of the manufacturer, and 24 hrs post transfection the culture medium was supplemented with 1 mg/ml G418 (Sigma, Buchs, Switzerland). […]
cAMP measurements were performed as described previously (Revel et al., Proc. Natl. Acad. Sci. USA 2011, 108, 8485-8490). […] Finally, the plates were read with a luminometer (1420 Multilabel counter; PerkinElmer, Schwerzenbach, Switzerland), and the amount of cAMP was calculated. […]

Sequences of proteins named here, by UniProt entry; tags and fusion partners are left off. A change or cut given only in a name is not applied to a line headed by its entry.
UniProt Q96RJ0: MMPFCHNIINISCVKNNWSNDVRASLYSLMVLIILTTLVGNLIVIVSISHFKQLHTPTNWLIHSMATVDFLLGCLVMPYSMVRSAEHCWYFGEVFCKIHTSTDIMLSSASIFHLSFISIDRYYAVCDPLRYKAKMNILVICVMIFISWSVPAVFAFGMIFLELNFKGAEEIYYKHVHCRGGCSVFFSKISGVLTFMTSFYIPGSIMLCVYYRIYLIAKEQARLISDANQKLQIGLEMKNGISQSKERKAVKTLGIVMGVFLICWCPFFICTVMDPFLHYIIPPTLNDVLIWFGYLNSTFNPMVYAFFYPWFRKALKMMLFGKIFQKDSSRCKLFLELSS

This passage reports EC50 results from patent US10508107B2, “Morpholine derivative” (Hoffmann-La Roche Inc., priority 2016, dated 2019).

As to `CCc1[nH]nc(C(=O)Nc2ccc([C@H]3CNCCO3)cc2)c1C` [Example 1, 5-Ethyl-4-methyl-N-[4-[(2S)-morpholin-2-yl]phenyl]-1H-pyrazole-3-carboxamide], the EC50 came to 59 nM.

As a reminder, the EC50 is the concentration at which the effect is half-maximal.
